Source: PMC7614775 (Nature chemical biology, 2022)

Tests used:
[1] = tested on: GM-CSF stimulated STAT5 phosphorylation (JAK2-dependent); assay: Phospho-STAT western blot in human PBMCs; assay type: cell-based; conditions: compound 2 h, GM-CSF 15 min
[2] = tested on: IL-12-STAT4 signaling (TYK2/JAK2-dependent); assay: Phospho-STAT western blot in human PBMC-derived T-blasts; assay type: cell-based; conditions: compound 2 h, IL-12 12.5 ng/mL 15 min
[3] = tested on: prolactin (PRL)-stimulated STAT5 (JAK2-dependent) phosphorylation; assay: Phospho-STAT western blot in 22Rv1 cells expressing JAK1 variants; assay type: cell-based, human; conditions: 2 µM, 2 h

## C[C@@H]1CCN(C(=O)CC#N)C[C@@H]1N(C)c1ncnc2[nH]ccc12 [tofacitinib, reference compound]
[1]
  effect on GM-CSF stimulated STAT5 phosphorylation: blocked
[2]
  effect on IL-12-STAT4 signaling: inhibited
[3]
  effect on PRL-induced STAT5 phosphorylation: fully inhibited
